“Also recorded” adds a separate entry of the source.
Legend:
[1] = target: T1, ovine FPA prostanoid receptor (Ovis aries, UniProt Q28905); conditions: FPA expressing cells, after removal of PGF2α; cited from earlier work
T1 construct: expressed in transfected cells

The chains behind the UniProt entries cited, without tags or fusion partners. Residues count along the entry.
UniProt Q28905, 1-317 isoform Q28905-2: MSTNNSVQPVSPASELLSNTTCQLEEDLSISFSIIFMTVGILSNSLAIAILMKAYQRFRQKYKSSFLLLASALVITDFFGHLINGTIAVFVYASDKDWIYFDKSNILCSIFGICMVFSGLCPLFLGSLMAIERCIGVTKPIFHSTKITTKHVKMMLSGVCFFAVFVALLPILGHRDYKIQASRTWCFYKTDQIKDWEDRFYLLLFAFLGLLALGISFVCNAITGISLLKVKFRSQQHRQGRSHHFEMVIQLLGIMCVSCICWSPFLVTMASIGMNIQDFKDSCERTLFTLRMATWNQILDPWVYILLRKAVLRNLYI

[2] = target: T1, ovine FPA prostanoid receptor; test: Phase contrast microscopy of cell morphology; type: cell-based
Experimental: (§1) FIG. 1. A, phase contrast microscopy (x225) of FPA and FPB expressing cells after treatment with either vehicle (panels a and c) or 1 μM PGF2α (panels b and d) for 1 hour at 37° C. B, β-catenin FITC immunofluorescence (green) and nuclear DAPI fluorescence (blue) microscopy (x225) of FPA and FPB cells after the same treatment. Cells were labeled and prepared for microscopy as described in Experimental Procedures. The results are representative of more than three experiments.
(§2) FIG. 4. A, phase contrast microscopy (x225) and B, stimulation of Tcf/Lef responsive luciferase reporter gene activity after FPA and FPB expressing cells were treated with either vehicle or 1 μM PGF2α for 1 hour and were washed extensively drug-free media and incubated for an additional 16 hours at 37° C. in drug-free media. The transfection conditions, drug washout, and luciferase assay are provided in Experimental Procedures. Luciferase data are normalized to the vehicle treated FPA cells and are the means+/−the standard errors of three independent experiments each performed in duplicate.
(§3) Immunofluorescence Microscopy. HEK-293 cells stably expressing the ovine FPA and FPB prostanoid receptor isoforms (5) were split and grown in six-well plates containing 22-mm round glass cover slips for 3-4 days. Cells were treated with either vehicle (sodium carbonate, 0.002% final) or 1 μM PGF2α and were rapidly washed, fixed, and incubated with a 1:1000 dilution of a mouse monoclonal antibody to β-catenin (Transduction Laboratories). They were then washed and incubated with a 1:4000 dilution of an FITC-conjugated goat anti-mouse secondary antibody (Sigma). Nuclei were stained with 4′,6-diamidino-2-phenylindole (DAPI, Sigma). Cells were visualized by phase-contrast and epifluorescence microscopy as previously described (6).

[3] = target: T2, ovine FPB prostanoid receptor (Ovis aries, UniProt Q28905); test: Phase contrast microscopy of cell morphology; type: cell-based
T2 construct: expressed in transfected cells
Experimental: as §1, §2, §3

[4] = target: T1, ovine FPA prostanoid receptor; test: Immunofluorescence microscopy of β-catenin and E-cadherin localization; type: cell-based; conditions: 1 μM PGF2α, FPA expressing cells
Experimental: as §1, §3

[5] = target: T2, ovine FPB prostanoid receptor; test: as above; type: cell-based; conditions: 1 μM PGF2α, FPB expressing cells
Experimental: as §1, §3

[6] = target: T1, ovine FPA prostanoid receptor; test: Tcf/Lef Reporter Gene Assay; type: cell-based; conditions: FPA expressing cells
Experimental: as §2
(§4) Tcf/Lef Reporter Gene Assay. Cells were split into 10-cm dishes and the next day were transiently transfected using FuGENE-6 (Roche) and either 10 jLg/dish of the wildtype Tcf/Lef reporter plasmid, TOPflash, or the mutant plasmid, FOPflash. FOPflash differs from TOPflash by mutation of its Tcf binding sites and serves to differentiate Tcf/β-catenin mediated signaling from background (Upstate Biotechnology). Cells were incubated overnight and were treated for 1 hour at 37° C. with either vehicle or 1 JμM PGF2α. They were then rapidly washed three times each with 2 ml of Opti-MEM (Life Technologies) as previously described (6) and incubated for 16 hours at 37° C. in 10 ml of Opti-MEM containing 250 μg/ml geneticin, 200 μg/ml hygromycin B, and 100 μg/ml gentamicin. Cells were placed on ice, rinsed twice with ice cold PBS, and extracts were prepared using the Luciferase Assay System (Promega). Luciferase activity in the extracts (˜500 ng protein/sample) was measured using a Turner TD-20/20 luminometer and was corrected for background by subtraction of FOP-FLASH values from corresponding TOP-FLASH values.

[7] = target: T2, ovine FPB prostanoid receptor; test: Tcf/Lef Reporter Gene Assay; type: cell-based; conditions: FPB expressing cells
Experimental: as §2, §4

[8] = target: T1, ovine FPA prostanoid receptor; test: RT-PCR of β-catenin mRNA; type: cell-based; conditions: 1 μM PGF2α, 1 hour, FPA expressing cells
Experimental: (§5) FIG. 2. A, Immunoblot of β-catenin in particulate and cytosolic fractions prepared from FPA and FPB expressing cells after treatment with either vehicle (lanes a and c) or 1 μM PGF2α (lanes b and d) for 1 hour at 37° C. B, RT-PCR of β-catenin and control glyceraldehyde-3-phosphate dehydrogenase (GAPDH) mRNA from FPA and FPB expressing cells after the same treatment. Immunoblotting (10 μg of protein per sample) and RT-PCR were done as described in Experimental Procedures. Results for both the immunoblotting and RT-PCR are representative of three independent experiments.
(§6) RT-PCR. RT was done using the Superscript Preamplification System (Life Technologies) and 1 μg of RNA/sample that had been pretreated with DNase I. This was followed by PCR using an initial incubation at 94° C. for 5 minutes, followed by 20 cycles of 94° C., 60° C., and 68° C. each for 2 minutes, and a final incubation at 68° C. for 10 minutes. The human β-catenin and GAPDH primner pairs were exactly according to Rezvani & Liew (8). Product sizes were 521 bp for β-catenin and 737 bp for GAPDH and were resolved by electrophoresis on 1.5% agarose gels. Preliminary experiments were done to find the optimal conditions for quantitative amplification of β-catenin and GAPDH rnRNA.

[9] = target: T2, ovine FPB prostanoid receptor; test: RT-PCR of β-catenin mRNA; type: cell-based; conditions: 1 μM PGF2α, 1 hour, FPB expressing cells
Experimental: as §5, §6

[10] = target: T1, ovine FPA prostanoid receptor; conditions: FPA expressing cells; cited from earlier work
[11] = target: T2, ovine FPB prostanoid receptor; conditions: FPB expressing cells, after removal of PGF2α; cited from earlier work
[12] = target: T1, ovine FPA prostanoid receptor; test: Immunoprecipitation and immunoblotting of β-catenin; type: cell-based; conditions: 1 μM PGF2α, 1 hour, FPA expressing cells
Experimental: as §5
(§7) FIG. 3. Immunoblot (IB) of β-catenin (β-cat) in cytosolic fractions and nuclear extracts; and immunoblot of serine/threonine phosphorylated (PS/PT) cytosolic β-catenin, from FPA and FPB expressing cells after treatment with either vehicle (lanes a and c) or 1 μM PGF2α (lanes b and d) for 1 hour at 37° C. Cytosolic fractions were prepared as described in Experimental Procedures and samples (100 μg protein) were immunoprecipitated (IP) with antibodies to β-catenin and were first probed with antibodies to phosphoserine and phosphothreonine (upper panel); and then were stripped and reprobed with antibodies to β-catenin (middle panel). Immunoblotting of nuclear extracts (lower panel) was done with 10 μg protein per sample without prior immunoprecipitation. Results are representative of three independent experiments.
(§8) Immunoprecipitaaion and Blotting. Cells were scraped and sonicated in a lysis buffer consisting of 20 mM Tris-HCl (pH 7.5), 10 mM EDTA, 2 mM EGTA, 2 mM phenylmethylsulfonylfluoride, 0.1 mg/ml leupeptin and 2 mM sodium vanadate. Samples were centrifuged (16,000×g) for 15 minutes at 4° C. and the supernatant (cytosolic fraction) was removed and the pellet (particulate fraction) was solubilized with lysis buffer containing 0.2% Triton X-100 and then centrifuged again to remove insoluble debris. For immunoprecipitation, samples were rotated for 2 hours at 4° C. with antibodies to β-catenin, followed by addition of protein-G sepharose (Amersham) and rotation for another hour. The sepharose was washed with lysis buffer and then resuspended with SDS-PAGE sample buffer and boiled. Samples were electrophoresed on 7.5% SDS-polyacrylamide gels, transferred to nitrocellulose membranes, and incubated with either antibodies to P-catenin or with a mixture of mouse monoclonal antibodies to phosphoserine (Sigma) and phosphothreonine (Sigma). The membranes were washed and incubated with horseradish peroxidase-conjugated goat anti-mouse secondary antibodies and were visualized by enhanced chemiluminiescence (SuperSignal, Pierce). Nuclear extracts were prepared according to the method of Dignam as modified by Westin et al. (7).

[13] = target: T2, ovine FPB prostanoid receptor; test: as above; type: cell-based; conditions: 1 μM PGF2α, 1 hour
Experimental: as §5, §7, §8

[14] = target: T2, ovine FPB prostanoid receptor; conditions: FPB expressing cells; cited from earlier work
[15] = 1 μM PGF2α 1 hour, washout, 16 hours
[16] = 1 μM PGF2α, 1 hour, data not shown

prostaglandin F2α [PGF2α]
time to reversal of morphological changes following removal of PGF2α [1]: ≤ 1 hour
cell morphology 16 hours after washout ([2]; 1 μM PGF2α 1 hour, washout, 16 hours in drug-free media, FPA expressing cells): return to their original dendritic morphology
morphological changes ([2]; 1 μM PGF2α, 1 hour, HEK cells stably expressing ovine FPA): loss of filopodia and formation of cell aggregates
cell morphology 16 hours after washout ([3]; 1 μM PGF2α 1 hour, washout, 16 hours in drug-free media, FPB expressing cells): remain rounded and aggregated
morphological changes ([3]; 1 μM PGF2α, 1 hour, HEK cells stably expressing ovine FPB): loss of filopodia and formation of cell aggregates
β-catenin localization (accumulation in regions of cell-to-cell contact) ([4]; 1 hour): but not in FPA expressing cells
effects on E-cadherin localization ([4]; data not shown): not apparent
β-catenin localization (accumulation in regions of cell-to-cell contact) ([5]; 1 hour): marked accumulation of β-catenin in regions of cell-to-cell contact
effects on E-cadherin localization ([5]; data not shown): not apparent
Tcf/Lef luciferase reporter gene activity 16 hours after agonist removal [6, 15]: essentially absent
Tcf/Lef luciferase reporter gene activity immediately following treatment [6, 16]: did not stimulate luciferase activity
Tcf/Lef luciferase activity relative to vehicle control or PGF2α treated FPA cells [7, 15]: roughly 6.5 fold
Tcf/Lef luciferase reporter gene activity 16 hours after agonist removal [7, 15]: profound stimulation
Tcf/Lef luciferase reporter gene activity immediately following treatment [7, 16]: did not stimulate luciferase activity
β-catenin mRNA levels [8]: not affected
β-catenin mRNA levels [9]: not affected
Rho activation and downstream effects [10]: activates Rho leading to the formation of actin stress fibers, phosphorylation of p125 focal adhesion kinase and cell rounding
reversal of morphological changes following removal of PGF2α [11]: remain rounded even after 48 hours
levels of β-catenin in the particulate fraction [12]: little effect
serine/threonine phosphorylation of cytosolic β-catenin [12]: marked increase in phosphorylation
levels of cytosolic β-catenin ([12]; cytosolic fraction): increased the levels of cytosolic β-catenin; also recorded: levels of cytosolic β-catenin increase
levels of β-catenin in the particulate fraction ([13]; FPB expressing cells): little effect
serine/threonine phosphorylation of cytosolic β-catenin ([13]; FPB expressing cells): dramatic fall in phosphorylation
β-catenin in nuclear extracts ([13]; FPB expressing cells as compared with FPA expressing cells): significantly higher levels of β-catenin
levels of cytosolic β-catenin ([13]; cytosolic fraction, FPB expressing cells): increased the levels of cytosolic β-catenin; also recorded: further increase in cytosolic β-catenin
Rho activation and downstream effects [14]: activates Rho leading to the formation of actin stress fibers, phosphorylation of p125 focal adhesion kinase and cell rounding
